Read-outs that look alike come from different tables or passages of the source.

In data set [1] the test system is hiPSC-CM (iCell Cardiomyocytes^2). The procedure: (§1) Culture media change was performed every 2 days.
Total RNA was extracted from hiPSC-CM using the miRNeasy 96 Kit (Qiagen, Hilden, Germany) following the manufacturer’s recommendations. After the extraction, RNA purity was assessed by NanoDrop™ 8000 Spectrophotometer (Thermo Fisher Scientific Inc.). 5–10 ng/μL of RNA per sample were reverse transcribed and pre-amplified by using the TaqMan™ Advanced miRNA cDNA Synthesis Kit (Thermo Fisher Scientific Inc.). The synthesized cDNA was used for RT-qPCR with selected TaqMan™ assays (Thermo Fischer Scientific Inc.). RT-qPCR was carried out following the Applied Biosciences TaqMan miRNA expression assay protocol on a ViiA7 instrument (Thermo Fisher Scientific, Inc.). […] Therefore, to maximize the number of drugs and concentrations, explored in the same study, we pooled the triplicates for intracellular profiling of miRNAs. Therefore, no statistical analysis was performed on the data of miRNA profiling in the pellets of hiPSC-CM.
Following RTCA CardioECR assessment, hiPSC-CM cell pellets were collected, and total RNA was extracted and purified to investigate miRNAs upregulation by RT-qPCR. […]

For data set [2] the following is noted: ref extensive literature search, cited from earlier work.
Data set [3] deals with hiPSC-CM (iCell Cardiomyocytes^2). Description: RTCA CardioECR assessment (impedance and electrophysiology parameters). On the procedure: as §1
After seeding on fibronectin-coated xCELLigence ePlates (Agilent Technologies, Inc. Santa Clara, CA, USA), iCell^2 CM were monitored continuously through impedance electrodes. The following impedance parameters were measured: Cell Index (CI, measure of cell “health” and monolayer integrity), beating rate (BR) and amplitude (CI Amplitude, magnitude of contraction). Electrophysiology-like parameters (Field Potential Duration (FPD), considered as a surrogate for QT in in vivo studies, and Spike Amplitude (SA), depolarization induced by Na^+ channel opening) were measured starting from day 4–6, following the monolayer formation. […] All RTCA CardioECR data were double normalized (DMSO control and the baseline) with no further statistical group comparison for the normalized parameters. The variability of the data within the treatment groups was assessed by standard deviation.

Where [4] appears, read: 72-hour treatment, lowest concentration causing at least 20% change from baseline.

For the substance Endothelin-1, in data set [1], the “miRNAs hiPSC-CM pellet, MEC overall” value is 0.0003 µM (miR-34a-5p, miR-126-3p, miR-133b, miR-146b-5p, miR-187-3p, miR-320a-5p) and the “miRNAs upregulated at the MEC overall (hiPSC-CM pellet)” value is on record as 0.0003 µM (miR-34a-5p, miR-126-3p, miR-133b, miR-146b-5p, miR-187-3p, miR-320a-5p). Besides, the Cmax total in data set [2] (Supplementary Table 1) was 2 pM. Moreover, the Cmax total in data set [2] (Table 1) was 2 pM. Also, the “Field Potential Duration MEC” value in data set [3] (72-hour treatment, at least 10% change) is listed as 0.001 µM. Also, in data set [3] (72-hour treatment, at least 20% change), the “Contractility Amplitude MEC” value was 0.001 µM. Moreover, in data set [3] (72-hour treatment, at least 40% change), the “Spike Amplitude (SA) MEC” value is given as 0.0003 µM. Moreover, in data set [3] (setting [4]), the “Beating rate (BR) MEC” value was “ND (ND – not detected, magnitude of change was lower than 20%)” and the “Cell index (CI) MEC” value is recorded as “ND (ND – not detected, magnitude of change was lower than 20%)”. In addition, in data set [3] (change ≥20%, Table 2), the “RTCA, MEC (BR)” value was “ND (ND – not detected, magnitude of change was lower than 20% for CI/BR)” and the “RTCA, MEC (CI)” value was “ND (ND – not detected, magnitude of change was lower than 20% for CI/BR)”.

The values are drawn from paper PMC12332266 (Frontiers in Pharmacology, 2025).
